Data as given in PMC6355318 (Bioorganic & Medicinal Chemistry Letters, 2019).

Conditions: passive permeability, 5 hours at room temperature

CN(C)Cc1ccn2c(-c3ccnc(N)n3)c(-c3ccc(F)cc3)nc2c1 [Compound 2, reference compound]
PAMPA: 110 nm/s
